Results taken from ChEMBL document CHEMBL4715859, “Small Molecules Selectively Targeting Sigma-1 Receptor for the Treatment of Neurological Diseases” (J Med Chem, 2020).

Protein sequences, listed by entry. Tags and fused reporters are not part of them.
UniProt Q9R0C9, whole entry: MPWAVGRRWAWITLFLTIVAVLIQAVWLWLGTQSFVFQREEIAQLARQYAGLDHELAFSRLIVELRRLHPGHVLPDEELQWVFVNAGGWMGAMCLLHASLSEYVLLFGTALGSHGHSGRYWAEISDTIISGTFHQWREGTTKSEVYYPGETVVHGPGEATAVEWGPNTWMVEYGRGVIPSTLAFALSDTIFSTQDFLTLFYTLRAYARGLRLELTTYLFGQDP

Assays:
[1] = biological target: T1, Sigma intracellular receptor 2 (Rattus norvegicus, UniProt Q5U3Y7); type: cell membranes, Sprague-Dawley, Brain, Membrane
T1 sequence (Q5U3Y7 whole entry): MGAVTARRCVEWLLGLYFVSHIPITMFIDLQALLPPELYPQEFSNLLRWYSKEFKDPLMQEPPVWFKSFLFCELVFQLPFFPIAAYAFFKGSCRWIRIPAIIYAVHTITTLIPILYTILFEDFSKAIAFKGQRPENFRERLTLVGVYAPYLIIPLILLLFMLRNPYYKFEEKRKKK

[2] = biological target: Sigma non-opioid intracellular receptor 1 (Rattus norvegicus, UniProt Q9R0C9); type: cell membranes, Sprague-Dawley, Brain, Membrane

## CN(C)CCCC1(c2ccc(F)cc2)OCc2cc(C#N)ccc21 (configuration not stated) [CITALOPRAM]
[1]
  Ki: 5.41 µM
[2]
  Ki: 0.292 µM
